The text below walks through data of article PMC7613929 (Nature microbiology, 2022).

The chains are these.
B1: E. coli FtsN cytoplasmic tail peptide, residues 1-32 (EcFtsN^1-32) [E. coli] / E. coli FtsA (EcFtsA), full length [E. coli] (parent complex)
chain 1: MAQRDYVRRSQPAPSRRKKSTSRKKQRNLPAV
chain 2: MIKATDRKLVVGLEIGTAKVAALVGEVLPDGMVNIIGVGSCPSRGMDKGGVNDLESVVKCVQRAIDQAELMADCQISSVYLALSGKHISCQNEIGMVPISEEEVTQEDVENVVHTAKSVRVRDEHRVLHVIPQEYAIDYQEGIKNPVGLSGVRMQAKVHLITCHNDMAKNIVKAVERCGLKVDQLIFAGLASSYSVLTEDERELGVCVVDIGGGTMDIAVYTGGALRHTKVIPYAGNVVTSDIAYAFGTPPSDAEAIKVRHGCALGSIVGKDESVEVPSVGGRPPRSLQRQTLAEVIEPRYTELLNLVNEEILQLQEKLRQQGVKHHLAAGIVLTGGAAQIEGLAACAQRVFHTQVRIGAPLNITGLTDYAQEPYYSTAVGLLHYGKESHLNGEAEVEKRVTASVGSWIKRLNSWLRKEF

In the experiment the parent is B1. Nature of the experiment: SPR; FtsA immobilised on CM5 chip via amide coupling; peptide 1:2 dilution series from 20 μM.
What is called Kd is the concentration at which binding is half-saturated. In the case of chain 1 R8A, chain 1 R9A, the Kd was determined as 11.6 µM.
